Key:
CXCR4-ADRB2 heteromer = CXCR4-ADRB2 heteromer (Homo sapiens, UniProt P07550+P61073); test: Calcium mobilization assay, enhanced signaling of CXCR4-ADRB2 heteromer in MDA-MB-231 cells; conditions: stimulated with CXCL12 20 nM and Salmeterol 1 μM
CXCR4 = CXCR4 (Homo sapiens, UniProt P61073); test: Calcium mobilization assay in MDA-MB-231 cells expressing CXCR4 alone; format: cell-based

Amino acid sequences for entries named in this document (tags omitted).
UniProt P07550, whole entry: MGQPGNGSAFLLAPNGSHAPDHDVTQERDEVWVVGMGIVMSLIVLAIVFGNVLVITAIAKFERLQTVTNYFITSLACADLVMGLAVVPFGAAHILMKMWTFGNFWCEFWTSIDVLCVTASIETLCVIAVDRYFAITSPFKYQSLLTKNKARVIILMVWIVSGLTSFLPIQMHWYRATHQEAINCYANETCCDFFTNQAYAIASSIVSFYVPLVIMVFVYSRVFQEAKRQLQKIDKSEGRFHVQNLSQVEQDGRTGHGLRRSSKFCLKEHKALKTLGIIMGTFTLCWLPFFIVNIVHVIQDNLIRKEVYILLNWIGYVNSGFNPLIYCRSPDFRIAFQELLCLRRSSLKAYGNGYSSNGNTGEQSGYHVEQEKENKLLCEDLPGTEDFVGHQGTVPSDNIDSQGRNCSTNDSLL
UniProt P61073, whole entry: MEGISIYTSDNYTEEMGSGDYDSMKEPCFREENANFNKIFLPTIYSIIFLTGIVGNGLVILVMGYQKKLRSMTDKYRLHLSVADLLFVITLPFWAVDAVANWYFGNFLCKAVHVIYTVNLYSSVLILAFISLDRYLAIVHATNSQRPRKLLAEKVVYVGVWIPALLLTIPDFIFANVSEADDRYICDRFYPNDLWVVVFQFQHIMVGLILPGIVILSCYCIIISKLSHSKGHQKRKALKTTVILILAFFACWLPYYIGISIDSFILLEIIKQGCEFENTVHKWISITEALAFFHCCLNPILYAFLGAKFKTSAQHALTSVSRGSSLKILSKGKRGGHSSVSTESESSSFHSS

IC50 (CXCR4-ADRB2 heteromer; CXCR4 + ADRB2 (+Carvedilol) IC50 of Ca2+ response, co-treated with Carvedilol 10 μM): 1.4 ± 2.2 nM | IC50 (CXCR4-ADRB2 heteromer; CXCR4 + ADRB2 (−Carvedilol) IC50 of Ca2+ response, CXCR4 inhibitor only): 24.7 ± 8.88 nM | IC50 (CXCR4): 43.4 ± 0.57 nM
SMILES: NCCCCN(Cc1nc2ccccc2[nH]1)[C@H]1CCCc2cccnc21 [AMD070]
